The text below walks through data of US20180360953A1 (priority 2015, published 2018).

The test system of this assay is spleen cells. Type of assay: cell-based, mice. The conditions noted are these: for CD138+CD19+IgG+ and CD138+CD19+IgA+ cells by intracellular staining / surface IgG and surface IgA on induced CD138+ CD19+ cells: spleen cells, 2 days culture.

For `Cc1c(-c2ccnn2C)cc(C(=O)NCc2ccc(S(C)(=O)=O)cn2)c(=O)n1-c1cccc(C(F)(F)F)c1` [Alvelestat, alvelestat], the “frequency of CD138+ among CD19+ cells” value was “increased”; the “frequency of myeloid cells (CD11b+) and B cells (CD19+)” value is listed as “not affected”; the “CD138+CD19+IgG+ and CD138+CD19+IgA+ cells by intracellular staining” value is “further confirmed”; the “surface IgG and surface IgA on induced CD138+ CD19+ cells” value is “expressed surface IgG or a low but significant percentage of surface IgA”.

For the compound `CC(C)(C)C(=O)Oc1ccc(S(=O)(=O)Nc2ccccc2C(=O)NCC(=O)O)cc1` [Sivelestat, sivelestat], the “frequency of CD138+ among CD19+ cells” value is on record as “increased”; the “frequency of T cell subsets” value was “did not affect”; the “frequency of myeloid cells (CD11b+) and B cells (CD19+)” value is “did not affect”; the “CD138+CD19+IgG+ and CD138+CD19+IgA+ cells by intracellular staining” value is recorded as “confirmed induction”. In addition, the “surface IgG and surface IgA on induced CD138+ CD19+ cells” value was “expressed surface IgG or a low but significant percentage expressed surface IgA”.
